The values that follow come from publication PMC8523698, “Preclinical characterization of an intravenous coronavirus 3CL protease inhibitor for the potential treatment of COVID19” (Nature Communications, 2021).

Chains of the proteins cited; added tags and fusions are not shown. Residues count along the entry.
UniProt Q86VL8, 1-566 isoform Q86VL8-3: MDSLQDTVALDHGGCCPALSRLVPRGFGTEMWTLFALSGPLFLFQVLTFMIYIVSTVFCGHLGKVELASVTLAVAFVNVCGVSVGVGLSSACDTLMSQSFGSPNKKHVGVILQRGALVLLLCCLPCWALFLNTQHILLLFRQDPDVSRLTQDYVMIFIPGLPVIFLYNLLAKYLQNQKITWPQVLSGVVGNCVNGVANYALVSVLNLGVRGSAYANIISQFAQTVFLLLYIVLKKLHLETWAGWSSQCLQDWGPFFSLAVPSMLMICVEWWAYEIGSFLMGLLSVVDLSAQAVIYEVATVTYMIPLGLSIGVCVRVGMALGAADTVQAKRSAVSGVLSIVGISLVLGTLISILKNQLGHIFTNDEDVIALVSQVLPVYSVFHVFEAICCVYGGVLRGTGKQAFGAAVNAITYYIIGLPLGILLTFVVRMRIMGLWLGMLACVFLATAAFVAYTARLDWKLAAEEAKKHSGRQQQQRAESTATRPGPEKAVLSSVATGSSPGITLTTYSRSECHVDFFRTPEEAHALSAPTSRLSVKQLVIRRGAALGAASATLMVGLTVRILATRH

Where “and” joins values, the source holds several entries; their conditions need not be identical. Identical values can stand only once. Like-named read-outs stand apart in the source and are kept apart here.

Data set [1] concerns the target T1, MATE1 (Homo sapiens, UniProt Q96FL8).
T1 sequence (Q96FL8 1-570): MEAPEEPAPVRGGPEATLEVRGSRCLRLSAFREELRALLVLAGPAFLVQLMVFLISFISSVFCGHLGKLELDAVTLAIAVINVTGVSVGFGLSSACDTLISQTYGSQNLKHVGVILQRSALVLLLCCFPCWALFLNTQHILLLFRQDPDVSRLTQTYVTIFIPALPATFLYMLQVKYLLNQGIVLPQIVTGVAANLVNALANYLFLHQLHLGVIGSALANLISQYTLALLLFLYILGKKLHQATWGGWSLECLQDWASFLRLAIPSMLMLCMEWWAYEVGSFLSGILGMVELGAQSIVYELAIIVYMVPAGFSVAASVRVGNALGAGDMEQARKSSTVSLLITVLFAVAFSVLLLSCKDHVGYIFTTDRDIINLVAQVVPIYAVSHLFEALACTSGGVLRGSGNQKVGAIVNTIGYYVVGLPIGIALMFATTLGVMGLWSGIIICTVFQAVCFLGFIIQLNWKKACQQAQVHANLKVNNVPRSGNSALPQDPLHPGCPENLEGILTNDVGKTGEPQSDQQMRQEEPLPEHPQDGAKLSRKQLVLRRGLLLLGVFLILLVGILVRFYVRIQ
Description: Transporter inhibition using transfected HEK293 cells. The note with it: uptake of [14C]-metformin by MATE1; control inhibitor concentration 500 uM; single replicates.

Data set [2] concerns the target T2, MATE2K (Homo sapiens, UniProt Q86VL8).
T2 construct: expressed in transfected cells; host or cells: HEK293
The data set is described as above. The conditions noted are these: uptake of [14C]-metformin by MATE2K; control inhibitor concentration 500 uM; single replicates. In kind it is in vitro ADME.

Data set [3] addresses T3, OAT3 (Homo sapiens, UniProt Q8TCC7).
T3 sequence (Q8TCC7 1-542): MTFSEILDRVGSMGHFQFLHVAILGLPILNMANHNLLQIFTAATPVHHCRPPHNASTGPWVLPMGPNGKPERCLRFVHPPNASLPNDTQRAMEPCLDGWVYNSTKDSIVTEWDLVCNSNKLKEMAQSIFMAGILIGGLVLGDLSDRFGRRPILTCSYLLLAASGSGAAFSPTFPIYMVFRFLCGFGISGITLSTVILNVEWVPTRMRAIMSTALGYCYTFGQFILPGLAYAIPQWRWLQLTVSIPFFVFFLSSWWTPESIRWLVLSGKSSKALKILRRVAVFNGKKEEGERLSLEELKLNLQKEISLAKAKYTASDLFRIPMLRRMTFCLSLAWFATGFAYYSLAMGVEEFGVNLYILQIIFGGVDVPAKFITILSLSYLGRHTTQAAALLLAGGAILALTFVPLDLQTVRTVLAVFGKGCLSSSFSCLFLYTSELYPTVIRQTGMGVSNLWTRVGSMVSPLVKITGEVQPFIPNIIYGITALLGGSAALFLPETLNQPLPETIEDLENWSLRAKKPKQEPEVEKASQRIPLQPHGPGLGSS
The description is as above. The conditions noted are these: uptake of [3H]-ES by OAT3; control inhibitor 1000 uM.

In data set [4] the test system is SARS-CoV-2 (strain USA-WA1/2020). In kind it is cell-based. The note with it: replicate plates.
Data set [5] addresses T4, OATP1B3 (Homo sapiens, UniProt Q9NPD5).
T4 sequence (Q9NPD5 1-702): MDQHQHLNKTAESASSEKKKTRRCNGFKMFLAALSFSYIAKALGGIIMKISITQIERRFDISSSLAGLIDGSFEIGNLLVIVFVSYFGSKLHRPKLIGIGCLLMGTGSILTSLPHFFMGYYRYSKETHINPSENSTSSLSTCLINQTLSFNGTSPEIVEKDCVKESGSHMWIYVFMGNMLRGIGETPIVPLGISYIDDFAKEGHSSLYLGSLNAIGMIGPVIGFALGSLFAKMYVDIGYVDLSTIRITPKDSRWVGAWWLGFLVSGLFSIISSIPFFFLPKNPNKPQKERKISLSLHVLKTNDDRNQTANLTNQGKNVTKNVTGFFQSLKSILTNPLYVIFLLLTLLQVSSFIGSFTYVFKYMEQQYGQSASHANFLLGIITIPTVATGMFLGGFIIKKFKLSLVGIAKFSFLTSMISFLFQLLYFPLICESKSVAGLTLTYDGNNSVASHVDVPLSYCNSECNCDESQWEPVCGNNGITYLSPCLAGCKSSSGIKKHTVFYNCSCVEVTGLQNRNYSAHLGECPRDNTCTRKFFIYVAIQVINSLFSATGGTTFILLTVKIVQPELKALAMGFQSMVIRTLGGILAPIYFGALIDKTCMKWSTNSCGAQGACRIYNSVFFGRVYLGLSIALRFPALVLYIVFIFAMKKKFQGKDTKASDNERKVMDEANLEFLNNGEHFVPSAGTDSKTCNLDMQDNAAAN
Description: Transporter inhibition using transfected HEK293 cells. The conditions noted are these: uptake of Rosuvastatin by OATP1B3; control inhibitor 20 uM.

Data set [6] concerns the target T5, OATP1B1 (Homo sapiens, UniProt Q9Y6L6).
T5 sequence (Q9Y6L6 1-691): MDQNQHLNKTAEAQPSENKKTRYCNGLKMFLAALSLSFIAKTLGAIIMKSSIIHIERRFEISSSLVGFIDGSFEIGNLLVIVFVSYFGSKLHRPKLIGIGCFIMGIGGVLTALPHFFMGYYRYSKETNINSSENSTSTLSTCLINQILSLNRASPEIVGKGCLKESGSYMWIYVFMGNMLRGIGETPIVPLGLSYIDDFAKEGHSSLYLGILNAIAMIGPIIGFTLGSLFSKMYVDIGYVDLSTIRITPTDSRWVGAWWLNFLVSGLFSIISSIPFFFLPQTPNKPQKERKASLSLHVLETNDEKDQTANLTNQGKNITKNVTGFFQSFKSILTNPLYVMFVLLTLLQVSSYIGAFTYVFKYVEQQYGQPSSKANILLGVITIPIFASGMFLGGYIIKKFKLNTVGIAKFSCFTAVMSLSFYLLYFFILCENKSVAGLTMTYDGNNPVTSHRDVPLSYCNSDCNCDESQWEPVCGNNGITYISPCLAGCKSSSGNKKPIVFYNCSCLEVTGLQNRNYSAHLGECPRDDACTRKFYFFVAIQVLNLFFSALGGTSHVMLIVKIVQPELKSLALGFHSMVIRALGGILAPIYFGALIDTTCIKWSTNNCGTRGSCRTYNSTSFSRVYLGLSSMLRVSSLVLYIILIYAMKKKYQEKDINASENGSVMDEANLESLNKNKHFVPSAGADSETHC
Described as above. The conditions noted are these: uptake of Rosuvastatin by OATP1B1; control inhibitor 20 uM.

The test system of data set [7] is SARS-CoV-2 (strain USA-WA1/2020). Briefly: HeLa-ACE2 high-content imaging antiviral assay. The conditions noted are these: read-out: average EC90; compound alone.

The term EC90 denotes the concentration needed for an effect of 90%.

`CN/C(=N/CCSCc1nc[nH]c1C)NC#N` [Cimetidine]: the “% Uptake Activity” value in data set [1] was 0.628% (2×) and -0.452% (2×) and -0.176% (2×); in data set [2], 0.418% (2×) and -0.835% (2×).

Consider `CCCN(CCC)S(=O)(=O)c1ccc(C(=O)O)cc1` [Probenecid], for which, in data set [3], the “% Uptake Activity” value is -0.18% and 0.11% and 0.06%; the CPM was 234 CPM and 251 CPM and 248 CPM.

In the case of `CCC(CC)COC(=O)[C@H](C)N[P@](=O)(OC[C@H]1O[C@@](C#N)(c2ccc3c(N)ncnn23)[C@H](O)[C@@H]1O)Oc1ccccc1` [REM], the “Activity (normalized well value, Figure 3B combination matrix)” value in data set [4] (PF-00835231 0 + REM 0.02375 (REM alone)) is -6.552 and -5.992 and -10.5278; in data set [4] (PF-00835231 0 + REM 0.095 (REM alone)) it was 80.284 and 72.4309 and 68.9765; in data set [4] (PF-00835231 0 + REM 0.19 (REM alone)), 98.728 and 100.165.

In the case of `CO[C@H]1/C=C/O[C@@]2(C)Oc3c(C)c(O)c4c(O)c(cc(O)c4c3C2=O)NC(=O)/C(C)=C\C=C\[C@H](C)[C@H](O)[C@@H](C)[C@@H](O)[C@@H](C)[C@H](OC(C)=O)[C@@H]1C` [Rifamycin SV], the “% Uptake Activity” value in data set [5] was 0.0321% and 0.128% and -0.16%; in data set [6], 0.364% and 0.07% and -0.434%.

`CCC(CC)COC(=O)[C@H](C)N[P@](=O)(OC[C@H]1O[C@@](C#N)(c2ccc3c(N)ncnn23)[C@H](O)[C@@H]1O)Oc1ccccc1` [remdesivir, reference compound]: the EC90 in data set [7] turned out to be 0.17 µM.
